{"source": "patent US7728037B2", "about": "“Alpha-ketoglutarates of active ingredients and compositions containing same” (Sigma-Tau Industrie Farmaceutiche Riunite S.p.A., priority 2001, dated 2010)", "test_system": "rabbit heart papillary muscle subjected to hypoxia", "assay": "Metabolic tests: ATP concentrations in rabbit heart papillary muscle subjected to hypoxia after oral treatment", "assay_type": "in vivo", "conditions": "1 g/kg by mouth or equimolecular doses, three consecutive days; tissue held anoxic for 90 minutes; untreated controls 1.70±0.68 to 0.46±0.071", "excerpt": "After three consecutive days of treatment, sections of papillary muscle were isolated from the rabbit hearts and were perfused in a thermostatized bath with a saturated solution of 100% O2."}
{"smiles": "O=C(O)CCC(=O)C(=O)O", "note": "[alpha-ketoglutaric acid]", "values": [{"measurement": "ATP concentrations in papillary muscle after hypoxia", "value": "0.75 ± 0.8", "unit": "µmol/g tissue"}]}
